As usually defined, the Ki is the equilibrium dissociation constant of an inhibitor or competing ligand from its target.

Chains of the proteins cited; added tags and fusions are not shown. Lines headed by an entry give the natural chain unless they say otherwise; changes in a name come on top.
UniProt P18507: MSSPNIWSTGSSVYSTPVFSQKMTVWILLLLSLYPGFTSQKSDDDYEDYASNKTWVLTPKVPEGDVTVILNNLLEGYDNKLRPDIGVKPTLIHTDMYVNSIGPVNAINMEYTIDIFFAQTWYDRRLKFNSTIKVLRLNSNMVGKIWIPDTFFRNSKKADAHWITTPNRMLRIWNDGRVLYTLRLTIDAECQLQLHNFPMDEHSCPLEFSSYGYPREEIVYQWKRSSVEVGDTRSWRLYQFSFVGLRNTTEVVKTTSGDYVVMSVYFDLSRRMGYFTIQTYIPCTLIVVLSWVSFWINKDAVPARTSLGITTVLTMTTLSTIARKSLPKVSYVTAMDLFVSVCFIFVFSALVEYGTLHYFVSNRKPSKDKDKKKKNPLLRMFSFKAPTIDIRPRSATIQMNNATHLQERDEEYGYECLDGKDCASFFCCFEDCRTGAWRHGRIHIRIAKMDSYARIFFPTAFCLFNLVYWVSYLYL
UniProt P28472: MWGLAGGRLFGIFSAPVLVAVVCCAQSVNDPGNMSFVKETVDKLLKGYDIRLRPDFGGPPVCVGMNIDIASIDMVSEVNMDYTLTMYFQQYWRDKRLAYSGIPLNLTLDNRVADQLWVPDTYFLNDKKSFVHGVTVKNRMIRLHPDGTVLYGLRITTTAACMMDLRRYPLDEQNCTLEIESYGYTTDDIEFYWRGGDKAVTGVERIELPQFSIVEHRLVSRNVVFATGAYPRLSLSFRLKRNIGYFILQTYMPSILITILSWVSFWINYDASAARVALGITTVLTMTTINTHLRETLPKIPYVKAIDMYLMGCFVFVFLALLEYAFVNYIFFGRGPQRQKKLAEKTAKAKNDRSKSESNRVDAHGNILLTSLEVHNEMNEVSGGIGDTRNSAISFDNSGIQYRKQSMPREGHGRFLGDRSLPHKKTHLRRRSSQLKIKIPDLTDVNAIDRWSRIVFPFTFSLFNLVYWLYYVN
UniProt Q16445, whole entry: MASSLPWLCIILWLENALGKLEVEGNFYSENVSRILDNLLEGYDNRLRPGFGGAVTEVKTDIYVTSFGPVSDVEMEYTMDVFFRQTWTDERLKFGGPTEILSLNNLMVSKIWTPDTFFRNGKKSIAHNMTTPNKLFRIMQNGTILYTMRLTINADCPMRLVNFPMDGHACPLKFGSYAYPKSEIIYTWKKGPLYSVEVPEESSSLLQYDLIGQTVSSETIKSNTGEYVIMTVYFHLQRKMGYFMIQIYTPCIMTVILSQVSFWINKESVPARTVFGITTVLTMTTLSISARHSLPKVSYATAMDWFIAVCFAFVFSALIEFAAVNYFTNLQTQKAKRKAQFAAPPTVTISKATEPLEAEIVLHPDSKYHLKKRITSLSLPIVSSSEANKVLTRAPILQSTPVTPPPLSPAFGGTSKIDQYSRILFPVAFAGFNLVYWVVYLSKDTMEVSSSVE

The experiment concerns the target GABA-A receptor; alpha-6/beta-3/gamma-2 (Homo sapiens, UniProt P18507+P28472+Q16445). Put plainly: Binding affinity for human recombinant gamma-aminobutyric-acid (GABA) A receptor alpha-6-beta-3-gamma-2. The class given is protein-complex assay.

For the compound `CCOC(=O)c1cc2c(cn1)[nH]c1ccccc12`, the Ki came to 2700 nM.

The record behind these values is ChEMBL document CHEMBL1132940, “Pharmacophore/receptor models for GABA(A)/BzR subtypes (alpha1beta3gamma2, alpha5beta3gamma2, and alpha6beta3gamma2) via a comprehensive ligand-mapping approach” (J Med Chem, 2000).
